Results: patent publication US20220193133A1 (CENTURY THERAPEUTICS, published 2022)

Target: 9G8_M_GFP CAR
Assay: flow cytometry, CAR Jurkat cells + 10 ug/mL biotinylated lysozyme, streptavidin-APC, % positive cells

B1: human lysozyme (enzyme, UniProt P61626 19-148, looked up)
chain: KVFERCELARTLKRLGMDGYRGISLANWMCLAKWESGYNTRATNYNAGDRSTDYGIFQINSRYWCNDGKTPGAVNACHLSCSALLQDNIADAVACAKRVVRDPQGIRAWVAWRNRCQNRDVRQYVQGCGV
modifications: biotinylated
notes: also called human lysozyme protein
B1: no binding (tested: 10 ug/mL).
